# Literature values as cited in patent US8969323B2, “Priming solutions for cardiopulmonary bypass” (XVIVO Perfusion AB, priority 2010, dated 2015).
# Details: Griffel et al., 1992; cited from earlier work
substance,measurement,value
"25% albumin solution: hyperoncotic 25% albumin solution, cited from Griffel et al., 1992",increase of the volume in the vasculature relative to the given volume,almost five times the given volume
